Binding of CDR-mutated scFvs to a peptide of the spike HR2 region

The measurements come from Engelhart et al. 2022 (doi:10.1038/s41597-022-01779-4) through the FLAb antibody collection.

Target peptide (SARS-CoV-2 spike, HR2 region): PDVDLGDISGINAS

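The parent was found by panning a naive human phage display library on the peptide. The library (AAYL52) carries one to three amino acid substitutions per variant, with no insertions or deletions. Affinity was read by AlphaSeq, a pooled yeast mating assay with surface-displayed partners. Mating (16 h, 30 °C) was followed by selection of diploids and sequencing of their barcodes. Read counts were normalised to the haploid input and turned into Kd by a linear fit to BCL2-family pairs of known affinity, for each replicate. Mating was done three times.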

The variants keep the heavy chain, the linker and the frameworks of Ab-95 (scFv order VH, three GGGGS repeats, VL).
VH: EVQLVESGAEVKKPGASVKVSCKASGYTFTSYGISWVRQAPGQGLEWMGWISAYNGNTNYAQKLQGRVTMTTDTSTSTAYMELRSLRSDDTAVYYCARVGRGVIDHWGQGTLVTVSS
VL: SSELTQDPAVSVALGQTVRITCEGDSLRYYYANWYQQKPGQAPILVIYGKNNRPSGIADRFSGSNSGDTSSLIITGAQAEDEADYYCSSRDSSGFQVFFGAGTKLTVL

The whole VL of each variant is written out. All variants listed here change F95 of the VL, counted from its first residue. Kd is apparent (estimated from mating counts) and averaged on the log scale over replicates with a signal. Smaller is tighter. A pair that was not seen in any replicate is written "nd"; this usually means weak binding, but a binder can also be missed. Empty control strains, which show no peptide, gave a signal in 28% of pairings with library AAYL52; the median was 8.2 µM and 95% of these signals were weaker than 800 nM. No background was subtracted. In this assay the parent's reference entry averaged 200 nM; its copy inside this library read 180 nM.

The variant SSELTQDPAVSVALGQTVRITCEGDSLRYYMANWYQQKPGQAPILVIYGKNNRPIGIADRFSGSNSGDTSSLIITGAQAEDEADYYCSSRDSSGDQVFFGAGTKLTVL gave 3.6 µM (3 of 3 replicates). With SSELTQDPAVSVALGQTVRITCEGDSLRYYYANWYQQKPGQAPILVIYGKTNRPSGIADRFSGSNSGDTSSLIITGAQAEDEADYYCSSRDFSGGQVFFGAGTKLTVL the result was 31 µM (1 of 3 replicates). With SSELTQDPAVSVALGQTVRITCEGDSLRYYYANWYQQKPGQAPILVIYGKNNRRSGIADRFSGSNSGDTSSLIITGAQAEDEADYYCSPRDSSGWQVFFGAGTKLTVL the result was 4.1 µM (2 of 3 replicates). The variant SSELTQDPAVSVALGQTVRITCEGDSLRYYYANWYQQKPGQAPILVIYGKNNRPSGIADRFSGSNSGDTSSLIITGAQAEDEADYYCSSRDSSTDQVDFGAGTKLTVL showed nd (0 of 3 replicates). The variant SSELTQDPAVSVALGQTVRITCEGDSLRYYCANWYQQKPGQAPILVIYGKNNNPSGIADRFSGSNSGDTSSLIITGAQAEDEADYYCSSRDSSGTQVFFGAGTKLTVL showed 1.8 µM (3 of 3 replicates).

With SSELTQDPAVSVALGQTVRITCEGDSLRYYYAKWYQQKPGQAPILVIYGKNNTPSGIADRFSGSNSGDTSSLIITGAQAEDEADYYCSSRDSSGGQVFFGAGTKLTVL the result was 1.2 µM (3 of 3 replicates). The variant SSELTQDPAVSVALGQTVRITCEPDSLRYYYANWYQQKPGQAPILVIYQKNNRPSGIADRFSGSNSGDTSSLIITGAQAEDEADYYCSSRDSSGMQVFFGAGTKLTVL showed 13 µM (1 of 3 replicates). For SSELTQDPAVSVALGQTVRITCEGDSLRYYYANWYQQKPGQAPILVIYGKNNRESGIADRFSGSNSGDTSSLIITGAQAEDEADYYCSSRCSSGIQVFFGAGTKLTVL, the assay gave 2.5 µM (3 of 3 replicates). For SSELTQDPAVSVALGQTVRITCEGDSLRYPYANWYQQKPGQAPILVIYGKNNRPSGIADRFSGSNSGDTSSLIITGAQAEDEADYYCSSRDSSGSQVFFGAGTKLTVL, the assay gave 670 nM (3 of 3 replicates). The variant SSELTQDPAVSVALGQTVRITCEGDSLRYYYANWYQQKPGQAPILVIYGKNNRPSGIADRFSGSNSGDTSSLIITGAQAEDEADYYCRSRDSSGIQVFFGAGTKLTVL gave 3.4 µM (2 of 3 replicates).

With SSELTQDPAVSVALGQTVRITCTGDSLRYYYANWYQQKPGQAPILVIYGKNNRPSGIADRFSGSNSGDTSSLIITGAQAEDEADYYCSSRDSSGGYVFFGAGTKLTVL the result was 760 nM (3 of 3 replicates). The variant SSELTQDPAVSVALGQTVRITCEGDSLRYYYANWYQQKPGQAPILVIYGKNNRRSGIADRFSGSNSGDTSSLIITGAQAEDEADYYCSNRDSSGSQVFFGAGTKLTVL showed nd (0 of 3 replicates). For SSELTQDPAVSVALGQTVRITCESDGLRYYYANWYQQKPGQAPILVIYGKNNRPSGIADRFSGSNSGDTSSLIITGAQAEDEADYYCSSRDSSGIQVFFGAGTKLTVL, the assay gave 910 nM (3 of 3 replicates). The variant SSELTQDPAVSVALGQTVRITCEGDSLRYSYARWYQQKPGQAPILVIYGKNNRPSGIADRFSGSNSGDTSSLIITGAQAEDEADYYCSSRDSSGNQVFFGAGTKLTVL gave 120 nM (3 of 3 replicates). With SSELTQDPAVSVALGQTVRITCECDSLRYYYANWYQQKPGQAPILVIYGKNNRPSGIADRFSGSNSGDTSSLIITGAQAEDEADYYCSSRDSAGDQVFFGAGTKLTVL the result was 4.0 µM (3 of 3 replicates).

With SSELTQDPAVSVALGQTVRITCEGDLLRYYYANWYQQKPGQAPILVIYGKNPRPSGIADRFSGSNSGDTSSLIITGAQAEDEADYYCSSRDSSGWQVFFGAGTKLTVL the result was 7.0 µM (1 of 3 replicates).

Excerpt, the first 2 entries:

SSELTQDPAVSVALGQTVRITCEGDSLRYYMANWYQQKPGQAPILVIYGKNNRPIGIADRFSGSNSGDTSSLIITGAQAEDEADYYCSSRDSSGDQVFFGAGTKLTVL: 3.6 µM (3 of 3 replicates).
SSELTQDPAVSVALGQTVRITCEGDSLRYYYANWYQQKPGQAPILVIYGKTNRPSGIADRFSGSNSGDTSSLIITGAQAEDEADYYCSSRDFSGGQVFFGAGTKLTVL: 31 µM (1 of 3 replicates).